# Source: ChEMBL document CHEMBL1132952, “2D QSAR modeling and preliminary database searching for dopamine transporter inhibitors using genetic algorithm variable selection of Molconn Z descriptors” (J Med Chem, 2000)
# Amino acid sequences for entries named in this document (tags omitted).
# UniProt P23977, whole entry: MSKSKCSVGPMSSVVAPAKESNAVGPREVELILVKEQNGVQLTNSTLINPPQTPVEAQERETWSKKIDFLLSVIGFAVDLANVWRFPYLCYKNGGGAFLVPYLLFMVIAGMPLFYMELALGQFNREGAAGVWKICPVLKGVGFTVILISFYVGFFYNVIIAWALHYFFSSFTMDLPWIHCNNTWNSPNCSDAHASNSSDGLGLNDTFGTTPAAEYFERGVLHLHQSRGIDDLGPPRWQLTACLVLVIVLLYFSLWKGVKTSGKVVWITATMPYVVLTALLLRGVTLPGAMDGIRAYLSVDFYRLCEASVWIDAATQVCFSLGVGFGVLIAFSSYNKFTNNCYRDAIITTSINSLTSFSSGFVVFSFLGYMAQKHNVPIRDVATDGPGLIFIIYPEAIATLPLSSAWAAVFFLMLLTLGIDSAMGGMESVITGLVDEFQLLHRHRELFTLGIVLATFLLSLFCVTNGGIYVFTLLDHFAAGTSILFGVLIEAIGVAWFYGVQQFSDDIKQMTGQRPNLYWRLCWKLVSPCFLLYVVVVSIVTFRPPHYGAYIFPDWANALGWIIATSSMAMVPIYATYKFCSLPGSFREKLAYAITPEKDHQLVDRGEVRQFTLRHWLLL
# Biological target: Sodium-dependent dopamine transporter (Rattus norvegicus, UniProt P23977)
row,Compound,Ki
1,CCN(CC)CCOC(=O)C1(c2ccccc2)CCCC1,5.25 µM
2,CNC1CC(c2ccc(Cl)c(Cl)c2)c2ccccc21 (configuration not stated) [INDATRALINE],0.00794 µM
